The values below are quoted from earlier work in patent publication US20130023485A1, “PARENTERAL FORMULATIONS OF PEPTIDES FOR THE TREATMENT OF SYSTEMATIC LUPUS ERYTHEMATOSUS” (Teva Pharmaceutical Industries, Ltd., priority 2003, published 2013).

The conditions of this data set: administered parenterally; relative to beta-cyclodextrin; cited from earlier work.

As for “hepta-substituted sulfobutylether (β-cyclodextrin [CAPTISOL®]”, the nephrotoxicity result was “does not exhibit the nephrotoxicity”.
